One experiment concerns FosA3 W34A. To be noted: p < 0.05.
The subject of a further experiment is FosA3 W46A. To be noted: p < 0.05.

Take `O=c1[nH]n2cc(-c3n[nH]c(-c4cnc5c(Br)c(=O)[nH]n5c4)c3[N+](=O)[O-])cnc2c1Br` [ANY1, 3-bromo-6-[3-(3-bromo-2-oxo-1H-pyrazolo[1,5-a]pyrimidin-6-yl)-4-nitro-1H-pyrazol-5-yl]-1H-pyrazolo[1,5-a]pyrimidin-2-one]: the “Fold-Change in Kd (vs WT)” value in the experiment on FosA3 W34A is 6.0; with FosA3 W46A, 5.6.

These data come from patent publication US10980811B2, “Reversal of fosfomycin resistance” (University of Pittsburgh—Of the Commonwealth System of …, priority 2017, dated 2021).
